Measurements: article PMC4538835

Target: TAMRA-labelled ERM_(38–68) F47L (human) (UniProt P41161)
Assay: fluorescence polarisation

- Kd: 2600 nM
B1: MED25 ACID/PTOV domain (residues 391 to 548) (domain or fragment)
chain: GQQSVSNKLLAWSGVLEWQEKPKPASVDANTKLTRSLPCQVYVNHGENLKTEQWPQKLIMQLIPQQLLTTLGPLFRNSRMVQFHFTNKDLESLKGLYRIMGNGFAGCVHFPHTAPCEVRVLMLLYSSKKKIFMGLIPYDQSGFVNGIRQVITNHKQVQ
